Data reported in publication PMC5888952 (Toxicological Sciences, 2018).

Tested on: cryopreserved primary human hepatocytes (PHH) in 2Dsw culture
Test: Repeated-dose cytotoxicity
Settings: any of the 3 PHH donors, up to 14 days repeated exposure

With O=C(O)Cc1ccccc1Nc1c(Cl)cccc1Cl [diclofenac] the “EC50 (50% reduction in viability, ATP)” value was “could not be attained”.
